The values that follow are results of earlier work, collected in PMC5104425, “A Novel Selective Inhibitor of Delta-5 Desaturase Lowers Insulin Resistance and Reduces Body Weight in Diet-Induced Obese C57BL/6J Mice” (PLoS ONE, 2016).

The series has as its system cannabinoid receptor 1 (CB1). Conditions: cited from earlier work.

Regarding `Cc1c(C(=O)NN2CCCCC2)nn(-c2ccc(Cl)cc2Cl)c1-c1ccc(Cl)cc1` [rimonabant], for the setting “chronic treatment, rodents”, the “UCP1 expression in interscapular BAT and WAT adipocytes” value is listed as “upregulated”. Also, the body weight result (due to decreased food intake and increased energy expenditure) is “weight loss”.
